The numbers were not newly measured in patent publication US8507276B2, “Tissue culture media used as a component of cosmetics” (La Prairie Group AG, priority 2003, dated 2013), which cites them from elsewhere.

Where two headings read alike, the source gives them in different places.

For the substance “Butylene Glycol Caprylate/Caprate [Dermofeel BGC]”, the Polarity (medium-polar lipids) is 21.5 mN/m.

In the case of Di-C12/13 Alkyl Tartrate [Cosmacol ETI], the Polarity (polar lipids) is listed as 7.1 mN/m.

Take “Diethylene Glycol Dioctanoate/Diisononanoate [Dermol 489]”: the Polarity (polar lipids) is on record as 8.6 mN/m.
